{"source": "patent US9655822B2", "about": "“Hydrated lamellar phases or liposomes which contain a fatty monoamine or a cationic polymer which promotes intracellular penetration, and a cosmetic or pharmaceutical composition containing same, as well as a method of screening such a substance” (BASF Beauty Care Solutions France S.A.S., priority 2004, dated 2017)", "tested_on": "normal human fibroblasts"}
{"substance": "dextran texas red [#D-3329 dextran texas red]", "values": [{"measurement": "Toxicity", "result": "Yes"}]}
